# Target: HIS-FAAH (Dictyostelium FAAH) (Dictyostelium discoideum, UniProt Q8MMR8)
# By UniProt entry, the sequences of proteins in these tests, tags left out. Residues count along the entry.
# UniProt Q8MMR8, 1-637 limits assumed: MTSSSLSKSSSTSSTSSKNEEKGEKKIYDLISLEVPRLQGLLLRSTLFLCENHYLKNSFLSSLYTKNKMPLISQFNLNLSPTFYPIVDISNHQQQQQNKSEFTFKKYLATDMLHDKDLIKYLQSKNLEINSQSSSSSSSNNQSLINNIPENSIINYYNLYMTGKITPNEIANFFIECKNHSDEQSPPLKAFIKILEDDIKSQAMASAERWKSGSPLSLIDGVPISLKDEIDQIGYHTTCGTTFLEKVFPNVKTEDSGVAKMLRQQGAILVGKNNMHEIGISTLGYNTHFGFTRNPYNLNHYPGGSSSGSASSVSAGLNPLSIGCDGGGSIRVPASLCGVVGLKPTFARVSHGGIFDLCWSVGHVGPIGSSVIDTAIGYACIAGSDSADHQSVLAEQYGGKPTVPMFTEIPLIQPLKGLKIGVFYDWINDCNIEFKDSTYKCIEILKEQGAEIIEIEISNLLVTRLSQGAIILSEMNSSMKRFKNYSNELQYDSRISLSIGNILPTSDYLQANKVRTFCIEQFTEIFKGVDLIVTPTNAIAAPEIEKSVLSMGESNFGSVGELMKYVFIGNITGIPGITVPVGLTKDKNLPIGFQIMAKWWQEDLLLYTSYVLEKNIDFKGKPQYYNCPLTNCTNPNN
# Assay: inhibition of ApNA hydrolysis
# Conditions: 100 μM ApNA, 30 min, 37°C; irreversible, active site targeted
smiles,measurement,value
CCCCC/C=C\C/C=C\C/C=C\C/C=C\CCCCP(=O)(F)OC (stereo not shown),% inhibition at 1.0 μM,~ 63%
